# scFv variants of Ab-14 (light chain) against a SARS-CoV-2 spike peptide

Antigen: PDVDLGDISGINAS, a 14-residue peptide of the SARS-CoV-2 spike HR2 region.

Parent: Ab-14, a human scFv built as VH, the linker GGGGSGGGGSGGGGS, VL. Only the CDRs of the light chain vary.
VH: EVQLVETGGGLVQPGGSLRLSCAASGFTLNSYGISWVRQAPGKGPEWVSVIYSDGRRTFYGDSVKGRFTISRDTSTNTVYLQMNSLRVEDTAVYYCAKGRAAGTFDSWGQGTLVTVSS
VL: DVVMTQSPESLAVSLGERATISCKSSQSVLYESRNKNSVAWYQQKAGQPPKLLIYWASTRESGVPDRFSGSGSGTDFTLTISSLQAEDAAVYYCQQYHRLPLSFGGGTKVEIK

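Phage display of a naive human antibody library on the peptide gave the parent. Library AAYL50 holds single substitutions and randomly drawn double and triple substitutions in the CDRs. In AlphaSeq, yeast of one mating type display the scFv and yeast of the other type display the target. The frequency of each diploid, read from paired DNA barcodes, reflects how well the two displayed proteins bind. The ratio of observed to expected reads was calibrated, replicate by replicate, on BCL2-family standards whose Kd was known from biolayer interferometry. The assay was run in three technical replicates.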

Changes read parent residue, position, new residue, counted from the first residue of the VL shown. Affinities are written as log10 Kd with Kd in nM; a lower number is a better binder. The mean shown is taken over the replicates in which the pair was detected. Where no diploid with the target was found in any replicate, the entry reads "nd": below detection, most likely a poor binder, though not proof of it. For reference, the parent read 0.65 as the reference entry and 1.68 as a member of this library.

changes,"log10 Kd (nM), mean",replicates with signal,control signals
K36F+S38F+Q96R,2.93,1/3,2/9
S26W+V29R+R60P,nd,0/3,1/9
S28R+S33C+R34Q,3.78,3/3,2/9
L100P+S103A,nd,0/3,1/9
K24M+W56S,0.17,3/3,2/9
S26M+Q27R+S62H,2.01,3/3,1/9
K36T+S62H+L100K,1.85,3/3,1/9
S26I+Q27H+V29Q,1.38,3/3,0/9
N35F+L102A,nd,0/3,0/9
K24E+Y31K+S62L,2.57,3/3,3/9
V29A+A40L+L102M,4.90,1/3,6/9
S25K+R34A+K36P,4.08,1/3,1/9
Y31A+L100Q+L102A,3.88,2/3,3/9
E32L+T59H+Q96A,4.10,1/3,1/9
L30E+V39W+S58M,nd,0/3,0/9
K36H+S58T+E61A,1.12,3/3,5/9
L30P+E32P+T59V,nd,0/3,0/9
N35S+S38K+V39E,4.04,1/3,2/9
N37K+Q96N,3.81,1/3,0/9
R34L+A40C+E61N,3.05,3/3,1/9
Y31R+T59S+Y97H,4.65,1/3,1/9
N37I+S62A+Y97V,3.20,1/3,1/9
S25Q+L30Y+L100K,nd,0/3,0/9
S28E+Y97T+L102G,0.75,3/3,1/9
K36D+S58N+L102Y,2.28,3/3,0/9
Y97T+P101K,nd,0/3,1/9
S26G+V39H+E61Q,nd,0/3,4/9
S62I+L102N+S103G,4.48,1/3,0/9
N35S+A40H+S58N,4.02,1/3,2/9
S25G+V39K+S62D,nd,0/3,0/9
S25L+R34M+T59L,0.22,3/3,7/9
S26I+L30S+R99F,2.32,3/3,3/9
R34L+A40M,4.55,3/3,1/9

Further variants, results first:

"log10 Kd (nM), mean",replicates with signal,control signals,changes
4.34,1/3,2/9,Y31A+S33C+L102I
nd,0/3,0/9,S26I+E32A+Q96E
2.78,1/3,2/9,A57T+P101R+S103C
3.75,3/3,3/9,S26K+E61Y+R99G
1.35,3/3,2/9,Q27K+R34P+N37A
1.28,3/3,1/9,K24M+V29G+L102R
2.93,3/3,1/9,Q27R+R60A
3.86,1/3,0/9,S26K+A57Y+H98M
nd,0/3,0/9,S33C+V39W+A40P
nd,0/3,2/9,V39S+T59W+L102F
nd,0/3,0/9,T59H+R60V+L102A
2.01,3/3,3/9,S26H+T59I+H98L
1.01,3/3,0/9,E32K+S58T+S62E
nd,0/3,0/9,Q27A+N37I+Q95C
4.74,2/3,2/9,R34H+K36N+A40W
nd,0/3,3/9,S28F+L30D+Y97T
1.30,3/3,1/9,S62F+Q96A+L102Q
4.02,1/3,4/9,N37K+S38Q+Q96R
4.30,2/3,1/9,V39W+S62G
nd,0/3,1/9,Y31I+S38Q+V39A
3.37,2/3,1/9,V39Q+W56Q+E61Q
4.00,1/3,0/9,V29F+V39C
3.42,1/3,2/9,S26K+V29N+S58P
nd,0/3,3/9,R60H+Q95H+P101Y
nd,0/3,1/9,S33P+S58C+L102Y
nd,0/3,0/9,A40P+S58A+T59D
2.29,3/3,0/9,K24S+R34Y+L102M
3.75,1/3,2/9,Y31S+A40V+R60Y
nd,0/3,1/9,Y31Q+E32P+A40V
nd,0/3,0/9,S38Q+S58I+R60S
nd,0/3,0/9,S25G+R60Y+L100K
2.48,1/3,0/9,Y31E+W56D+Q95G
2.23,3/3,6/9,W56C+Y97I+L102D

For reference, 7 entries of the list once more:

changes,"log10 Kd (nM), mean",replicates with signal,control signals
S25Q+L30Y+L100K,nd,0/3,0/9
Y31A+S33C+L102I,4.34,1/3,2/9
N35S+S38K+V39E,4.04,1/3,2/9
N35S+A40H+S58N,4.02,1/3,2/9
A40P+S58A+T59D,nd,0/3,0/9
S38Q+S58I+R60S,nd,0/3,0/9
S25K+R34A+K36P,4.08,1/3,1/9

Empty control strains, which show no peptide, gave a signal in 18% of pairings with library AAYL50; the median was 4.19 and 95% of these signals were weaker than 2.99. No background was subtracted. The control count says in how many pairings with the empty strains this scFv gave a signal.

Data: MIT Lincoln Laboratory AlphaSeq set, Engelhart et al. 2022, doi:10.1038/s41597-022-01779-4, as distributed in FLAb.